Source: PubChem
PglD inh = C. jejuni PglD acetyltransferase inhibitors, primary screen, biochemical, DTNB colorimetric, single point; UDP-N-acetylbacillosamine N-acetyltransferase PglD (Campylobacter jejuni); purified PglD enzyme, DTNB colorimetric CoA detection; inhibition, % at 12.5 µM; actives 0.098% (n = 360,000); AID 602405, 2012; in the data active = inhibition above about 16%, passing the limit was not always enough
PDI turbidity = inhibitors of human PDI, primary screen, biochemical, turbidity, single point, plate reader; PDI insulin aggregation turbidity, A650, 90 min; inhibition, % at 10 µM; actives 0.052% (n = 350,000); Protein disulfide-isomerase (Homo sapiens), P07237;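 active = mean inhibition across replicates of 30% or more, whatever share of single replicates reach that level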
ARNT-TACC3 inh = disruptors of ARNT/TACC3 protein interaction, primary screen, biochemical, AlphaScreen, single concentration | AlphaScreen His-ARNT PAS-B/GST-TACC3 binding, luminescence; TACC3 fragment carries E629A point mutation | inhibition, % at 9.99 µM | actives 0.66% (n = 390,000) | Transforming acidic coiled-coil-containing protein 3 (Homo sapiens), Q9Y6A5;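 active = mean inhibition of replicates at least 50% and at least half of replicates each reaching 50%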;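 also: 0% = complete ARNT plus TACC3 wells and 100% = ARNT alone without TACC3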
FGF22 binding = binders of human FGF22 protein, primary screen, FGF22 synaptogenesis inhibitor project, biophysical, thermal shift, single point; Fibroblast growth factor 22 (Homo sapiens), Q9HCT0; recombinant FGF22 thermal shift, SYPRO orange fluorescence; percent of sucrose octasulfate shift, DMSO zero; activity (Tm shift, normalised), % at 9.99 µM; actives 1.5% (n = 340,000); AID 651658, 2012;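 active = mean Tm shift, scaled 0 neutral to 100 positive control, at about 1.3% or above, every replicate too, limit read from the data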
ERp5 block = inhibitors of ERp5-driven insulin aggregation, primary screen, biochemical, turbidity, absorbance 650 nm, single point. Protein disulfide-isomerase A6 (Homo sapiens), Q15084. 90 min. inhibition, % at 9.99 µM. actives 0.05% (n = 350,000). AID 651711, 2012;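 active = mean replicate inhibition above about 25%, with every replicate also reaching it, limit read from the data, passing the limit was not always enough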
UUG fidelity = alters start codon recognition fidelity in yeast | S. cerevisiae UUG-firefly luciferase reporter, luminescence/redox ratio | activity score, % at 18.7 µM | 350,000 compounds, 0.13% hits | AID 602363;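 active = replicate mean at a twofold rise or more, about +100% in these data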;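 note: firefly luciferase made from a UUG start codon reports start codon fidelity; reporter light over untreated wells divided by growth signal over untreated wells; some hits fall short of that in this replicate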
ARNT Alpha ctr-1 = AlphaScreen signal interference compounds, dose response, artefact control for ARNT-TACC3 interaction inhibitor project, biochemical, luminescence, cherry-pick; shares compounds with ARNT-TACC3 inh; actives 50% (n = 1,200); His-ARNT PASB-GST AlphaScreen artifact counter-screen; AC50, µM (series often up to 68 µM), without a hit: at the highest dose activity change, negative = signal decrease; AID 651705, 2012;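 active = every separate test run was called active for a drop in luminescence, with AC50 within twice the top valid dose, actives reach about 71 µM in these data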
ARNT Alpha ctr-2 = AlphaScreen signal interference by compounds, dose response, artefact control for ARNT/TACC3 disruptor project, biochemical, dual-tagged ARNT, dry powder. shares compounds with ARNT-TACC3 inh. Dual-tagged His-ARNT PASB-GST AlphaScreen artifact counter-screen. AC50, µM. actives 70% (n = 45). AID 720564, 2013;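 active = luminescence drop, with half-maximal potency fitted within twice the sample's top valid dose, cut at about 70 µM in these data; inactive = the rest, including signal moving the wrong way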
* marks the source's active call; other numbers are inactive results; · = no result given; [ ] = remark or other dose. Hits are enriched below; roughly 1.9% of the tested compounds scored in any of these assays.

SMILES | PglD inh | PDI turbidity | ARNT-TACC3 inh | FGF22 binding | ERp5 block | UUG fidelity | ARNT Alpha ctr-1 | others
Clc1cccc(CNc2nc(-c3ccccn3)nnc2-c2ccccc2)c1 | · | · | · | · | · | · | 2.2µM*
COc1ccccc1C#Cc1ccc([C@@H]2[C@@H](CO)N3CCCCN(C(=O)C4CC4)C[C@H]23)cc1 | -2 | · | 0 | 1 | 1 | 26 | ·
C[C@@H]1CN([C@H](C)CO)C(=O)c2cccc(NS(=O)(=O)c3ccc(Cl)cc3)c2O[C@@H]1CN(C)Cc1ccc(C(=O)Nc2ccccc2N)cc1 | 0 | · | 6 | 0 | -7 | 16 | ·
COc1cccc(/C=N/n2c(-c3n[nH]c4c3CCC4)n[nH]c2=S)c1O | · | -6 | 34* | · | · | · | -12%
COc1cc(/C=N/n2c(-c3n[nH]c4c3CCC4)n[nH]c2=S)cc(OC)c1O | · | 0 | -6 | 0 | 0 | · | ·
O=C(c1cc(-c2ccccc2)on1)N1CCC(N2CCOCC2)CC1 | · | · | · | · | · | · | 0%[38 µM]
COc1cc(Cc2nccc3cc(OC)c(OC)cc23)c(S(=O)(=O)O)cc1OC | -1 | -6 | active | 0 | -1 | -8 | -4%
Cc1noc(C)c1NC(=O)N(C)C[C@H]1Oc2ccc(NC(=O)Cc3cn(C)c4ccccc34)cc2CC(=O)N([C@@H](C)CO)C[C@H]1C | 1 | · | -6 | 0 | -6 | -1 | ·
C[C@@H]1CN([C@H](C)CO)C(=O)c2cc(NC(=O)NC3CCCCC3)ccc2O[C@@H](C)CCCCO[C@H]1CN(C)S(=O)(=O)c1ccccc1 | -1 | · | -1 | 0 | 7 | -1 | ·
COc1ccccc1CN1C[C@@H]2N[C@H](C1)C2c1ccc(-c2ccccc2OC)cc1 (some centres undefined) | · | · | · | · | -3 | · | ·
O=C(O)CSc1cc(NS(=O)(=O)c2cccc([N+](=O)[O-])c2)c2ccccc2c1O | 3 | -3 | 61* | 0 | -8 | -25 | -11%
CCOc1ccc(S(=O)(=O)Nc2cc(SCC(=O)O)c(O)c3ccccc23)cc1 | 7 | 3 | · | 0 | 1 | -25 | ·
O=C(C[C@@H]1CC[C@H](NC(=O)Nc2ccc3c(c2)OCO3)[C@@H](CO)O1)NCc1ccccc1 | 4 | · | 3 | 0 | -3 | 0 | ·
CN(C)c1ccc2c(c1)[C@H]1C[C@H](CC(=O)N3CCCCC3)O[C@H](CO)[C@H]1O2 | · | · | · | · | -3 | · | ·
CCCC#Cc1ccc2c(c1)O[C@@H](CN(C)Cc1cccnc1)[C@@H](C)CN([C@H](C)CO)S2(=O)=O | 4 | · | 25 | 0 | 1 | -9 | ·

Three structures already listed, ordered by molar mass, ascending.
SMILES | PglD inh | PDI turbidity | ARNT-TACC3 inh | FGF22 binding | ERp5 block | UUG fidelity | ARNT Alpha ctr-1 | others
COc1ccccc1CN1C[C@@H]2N[C@H](C1)C2c1ccc(-c2ccccc2OC)cc1 (some centres undefined) | · | · | · | · | -3 | · | ·
CCCC#Cc1ccc2c(c1)O[C@@H](CN(C)Cc1cccnc1)[C@@H](C)CN([C@H](C)CO)S2(=O)=O | 4 | · | 25 | 0 | 1 | -9 | ·
C[C@@H]1CN([C@H](C)CO)C(=O)c2cccc(NS(=O)(=O)c3ccc(Cl)cc3)c2O[C@@H]1CN(C)Cc1ccc(C(=O)Nc2ccccc2N)cc1 | 0 | · | 6 | 0 | -7 | 16 | ·

The listing continues.
SMILES | PglD inh | PDI turbidity | ARNT-TACC3 inh | FGF22 binding | ERp5 block | UUG fidelity | ARNT Alpha ctr-1 | others
CC(=O)Nc1ccccc1NC(=O)C/C(C)=N/NC(=O)c1ccccn1 | · | -5 | · | 0 | 2 | · | ·
C/C(CC(=O)NC1CCCCC1)=N\NC(=O)c1ccccn1 | · | 5 | 13 | 0 | 1 | · | ·
C/C(CC(=O)Nc1ccc(F)cc1)=N\NC(=O)c1ccccn1 | 4 | 1 | 22* | 0 | 2 | -36 | -7%
C/C(CC(=O)NCc1ccccc1Cl)=N/NC(=O)c1ccccn1 | 3 | -68 | 26* | 0 | 1 | -15 | 2%
COc1ccccc1NC(=O)CSc1nnnn1-c1ccccc1OC | 3 | 0 | -3 | 0 | -9 | -12 | ·
COc1ccc(OC)c(-n2nnnc2SCC(=O)Nc2ccccc2OC)c1 | -1 | -8 | active | 0 | 12 | 10 | -15%
COc1ccc(NC(=O)N[C@H]2CC[C@@H](CCn3cc(-c4ccccn4)nn3)O[C@H]2CO)cc1 | -5 | · | 65* | 0 | 7 | -18 | 40µM*
COc1ccc(NC(=O)N[C@H]2CC[C@@H](CCn3cc(-c4ccccn4)nn3)O[C@@H]2CO)cc1 | -6 | · | 95* | 0 | -3 | -25 | 39µM*
CCCNC(=O)N1[C@@H](CO)[C@@H](c2ccccc2)[C@@H]1CNC(=O)c1ccc(F)cc1 | -1 | · | 3 | · | · | 4 | ·
Cc1ccc(S(=O)(=O)N[C@H]2CC[C@H](CC(=O)NCCc3ccncc3)O[C@H]2CO)cc1 | -1 | · | · | 0 | -8 | 14 | ·
Oc1ccc(Cl)cc1CNc1cccc2cccnc12 | 4 | 2 | 65* | -1 | 1 | 5 | -31%
CCc1cc2c(=O)[nH]c(-c3ccccn3)nc2s1 | 1 | 10 | 76* | 0 | 4 | -65 | 51µM* | ARNT Alpha ctr-2=17*
CCc1cc2c(=O)[nH]c(N3CCCC3)nc2s1 | · | 5 | -4 | · | · | · | ·
COc1ccc(C2C(C#N)=C(N)Oc3n[nH]c(-c4ccccn4)c32)c(OC)c1OC (centres undefined) | 3 | 6 | 60* | · | · | -1 | -20%
O=C(Nc1nnc(SCc2ccc(F)cc2)s1)c1ccccn1 | · | 4 | 79* | 0 | -1 | · | 17µM*

Structures listed so far that contain fluorine, in the order listed:
SMILES | PglD inh | PDI turbidity | ARNT-TACC3 inh | FGF22 binding | ERp5 block | UUG fidelity | ARNT Alpha ctr-1 | others
C/C(CC(=O)Nc1ccc(F)cc1)=N\NC(=O)c1ccccn1 | 4 | 1 | 22* | 0 | 2 | -36 | -7%
CCCNC(=O)N1[C@@H](CO)[C@@H](c2ccccc2)[C@@H]1CNC(=O)c1ccc(F)cc1 | -1 | · | 3 | · | · | 4 | ·
O=C(Nc1nnc(SCc2ccc(F)cc2)s1)c1ccccn1 | · | 4 | 79* | 0 | -1 | · | 17µM*

Continued:
SMILES | PglD inh | PDI turbidity | ARNT-TACC3 inh | FGF22 binding | ERp5 block | UUG fidelity | ARNT Alpha ctr-1 | others
C#CCOCCOCCOCCNc1nc(N2CCN(C(=O)[C@H](CC(N)=O)n3cc([C@@H](N)CC(N)=O)nn3)CC2)nc(N2CCN(C(=O)[C@H](CC(N)=O)n3cc([C@@H](N)CC(N)=O)nn3)CC2)n1 | -2 | 6 | 46* | 0 | 3 | -4 | -7%
C#CCOCCOCCOCCNc1nc(N2CCN(C(=O)[C@H](CCCCN)n3cc([C@@H](N)CO)nn3)CC2)nc(N2CCN(C(=O)[C@H](Cc3ccc(O)cc3)n3cc([C@@H](N)CC(C)C)nn3)CC2)n1 | 3 | 13 | 38* | 0 | -5 | 16 | -17%
C#CCOCCOCCOCCNc1nc(N2CCN(C(=O)[C@H](CCCCN)n3cc([C@@H](N)CC(N)=O)nn3)CC2)nc(N2CCN(C(=O)[C@H](CCCCN)n3cc([C@@H](N)CC(N)=O)nn3)CC2)n1 | 0 | 3 | 60* | 0 | 5 | 49 | -3%
C#CCOCCOCCOCCNc1nc(N2CCN(C(=O)[C@H](CCCCN)n3cc(CN)nn3)CC2)nc(N2CCN(C(=O)[C@H](CCCCN)n3cc([C@@H](N)CC(N)=O)nn3)CC2)n1 | -8 | 0 | 36 | 0 | 3 | 84 | ·
